Source: US6432984B1, “Pyrazolecarboxylic acid derivatives, their preparation, pharmaceutical compositions containing them” (Sanofi-Synthelabo, priority 1999, dated 2002)

Protein sequences, listed by entry. Tags and fused reporters are not part of them.
UniProt P47746, whole entry: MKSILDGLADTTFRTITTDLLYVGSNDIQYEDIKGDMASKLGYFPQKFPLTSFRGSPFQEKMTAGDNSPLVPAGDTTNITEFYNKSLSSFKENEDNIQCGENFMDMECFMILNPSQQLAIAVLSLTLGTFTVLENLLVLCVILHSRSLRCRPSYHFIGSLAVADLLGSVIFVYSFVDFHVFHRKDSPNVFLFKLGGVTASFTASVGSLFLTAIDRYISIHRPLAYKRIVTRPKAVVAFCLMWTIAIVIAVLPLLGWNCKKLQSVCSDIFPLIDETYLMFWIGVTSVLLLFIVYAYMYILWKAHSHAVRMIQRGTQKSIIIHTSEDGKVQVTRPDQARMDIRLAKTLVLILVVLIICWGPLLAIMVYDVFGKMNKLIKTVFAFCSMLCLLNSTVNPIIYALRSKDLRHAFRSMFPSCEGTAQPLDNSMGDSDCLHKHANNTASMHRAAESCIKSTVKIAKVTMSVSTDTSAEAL

Biological target: T1, CB1 receptors present in the brain (Mus musculus, UniProt P47746)
T1 construct: from tissue; host or cells: mouse brain
Test: duration of occupation of the CB1 receptors present in the brain, in vivo after oral administration
Details: mice, oral 10 mg/kg

Cc1c(C(=O)NN2CCCCC2)nn(-c2ccc(Cl)cc2Cl)c1-c1ccc(Cl)cc1 [SR 141716, N-piperidino-5-(4-chlorophenyl)-1-(2,4-dichlorophenyl)-4-methylpyrazole-3-carboxamide]
% of occupation of the receptors, 1 hour (1 hour after administration): 69%
% of occupation of the receptors, 24 hours (24 hours after administration): 4%
